Experimental data reported in patent US8445281B2, “In vitro exposure of immature oocytes to BDNF enhances generation of embryonic stem cells” (The Board of Trustees of the Leland Stanford Junior …, priority 2006, dated 2013).

What was measured:
ovarian BDNF = experiment: Gonadotropin regulation of ovarian BDNF expression (DNA microarray, ELISA); format: in vivo, mouse; conditions: PMSG-primed mice
Description: Animals. Immature female B6D2F1 mice were obtained from Charles River Laboratories. Animal care was consistent with institutional and National Institute of Health guidelines. Mice at 22 days of age were treated with 7.5 units of pregnant mare serum gonadotropin (PMSG; Calbiochem), followed by treatment with 10 units of hCG (Sigma) 48 h later so as to simulate follicle maturation and ovulation.
DNA Microarray Analyses. Mice (n=108) were injected at 21 days of age with Humegon (7.5 units per animal, Organon) containing follicle-stimulating hormone and LH in order to stimulate follicular growth. Forty-eight hours later, some animals were treated i.p. with Pregnyl (5 units per animal) containing LH activity to induce ovulation. Ovaries were dissected from animals killed bi-hourly after Humegon treatment (three mice per group) and hourly after Pregnyl treatment (one mouse per group) for RNA extraction (TRIzol, Invitrogen). Aliquots of 6 μg of total RNA at 1 μg/μl for one-chipset hybridization were stored at −80° C. Samples were hybridized to the Affymetrix mouse MGU74v2 arrays A, B, and C according to standard Affymetrix protocols. The pooled follicular phase samples were hybridized in duplicate, and the postPregnyl samples were single determinations. […]

[1] = tested on: oocytes of preovulatory follicles; experiment: Preovulatory follicle culture, GVBD of oocytes; format: cell-based, mouse; conditions: cultured preovulatory follicles, 6 h, 5 μg/ml LH or BDNF
Description: Follicle Cultures. Preovulatory follicles were excised from mouse ovaries 48 h after PMSG treatment and cultured to examine nuclear maturation of oocytes (Kawamura et al. (2004) Proc. Natl. Acad. Sci. USA 101, 7323-7328). Follicles (20-30 per vial) were cultured with or without recombinant human BDNF (Pepro-Tech, Rocky Hill, N.J.) or 5 μg/ml LH (Organon) in Leibovitz's L-15 medium (Invitrogen). The vials were flushed at the start of the culture with O2/N2 (at a 1:1 ratio), sealed, and cultured at 37° C. with gentle shaking for 6 h. After culture, cumulus oocyte complexes (COCs) were isolated, and, after cumulus cells were removed, oocytes were examined for the occurrence of GVBD.

Substance | time of peak of ovarian BDNF antigen levels (ovarian BDNF) [h] | time to increase of ovarian BDNF antigen levels (ovarian BDNF) [h] | induction of GVBD in oocytes [1]
hCG: human chorionic gonadotropin (Sigma), 10 units to induce ovulation | 7 | ≤ 3 | –
LH: luteinizing hormone (Organon), 5 μg/ml in follicle culture | – | – | induced
